Data on 3 molecules can be found in article PMC6013488, “A widely-applicable high-throughput cellular thermal shift assay (CETSA) using split Nano Luciferase” (Scientific Reports, 2018).

Assay [1] has as its target human lactate dehydrogenase 5 (Homo sapiens, UniProt P00338). The experiment in a line: LDHA biochemical (enzymatic) assay. As to conditions: Supplementary Table 2; for pIC50: read-out: Biochemical Assay IC50.
For the next assay, the target named is LDHA-86b (Homo sapiens, UniProt P00338). The experiment in a line: SplitLuc CETSA of LDHA-86b (HEK293T). As to conditions: Supplementary Table 2, 63.5 °C for […] (Fig. 5). The class given is cell-based.
For assay [2], the system named is lactate production, HEK293T cells. The experiment in a line: Lactate production assay (HEK293T). As to conditions: Supplementary Table 2.

pEC50, pIC50: −log10 of the molar value.

A word on the pIC50: it is the IC50 on a negative log10 scale, so that one unit is a factor of ten. One may read the pEC50 as the negative decadic logarithm of the EC50, by convention in mol/L. `Cc1nc2ccc(NC(=O)CCNC(=O)CCCc3ccc(CC(C(=O)O)C(=O)O)cc3)cc2s1`: in assay [1], the “Biochemical Assay Efficacy” value is on record as -85.9 and the negative logarithm of the IC50 (pIC50) is 5.92. In addition, on LDHA-86b, the “CETSA LDHA-86b (HEK293T) Efficacy” value worked out at 49.3. Further, the pEC50 on LDHA-86b (read-out: CETSA LDHA-86b (HEK293T) EC50) is 4.78.
Take `O=C(O)c1csc(-n2nc(-c3ccccc3)cc2C(F)(F)F)n1`: in assay [1], the “Biochemical Assay Efficacy” value is recorded as -37.3 and the pIC50 is 4.47.
For `O=C1C[C@@](c2ccc(N3CCOCC3)cc2)(c2ccsc2)NC(=O)C1Sc1ccccc1Cl` (stereo partly shown), the “Lactate production (HEK293T) Efficacy” value in assay [2] was -52.361. Moreover, the negative logarithm of the IC50 (pIC50) in assay [2] (read-out: Lactate production (HEK293T) IC50) is 5.47. Besides, in assay [1], the “Biochemical Assay Efficacy” value was -99.4. The “CETSA LDHA-86b (HEK293T) Efficacy” value on LDHA-86b was 148.4.
